From PubChem BioAssay AID624170 (National Center for Advancing Translational Sciences (NCATS), 2012)
Values joined by “and” are separate entries in the source; they are usually repeats but may differ in a detail not shown here. Identical values can stand only once. Most of the hits are listed elsewhere, so they are rarer here than in the full data. Records with an inconclusive call do not appear. Active and inactive are the calls of the source. The call rests on the fitted dose curve; in most records, active means well fitted inhibition curve with a large enough effect; inconclusive means small, poorly fitted or top-dose-only effect, or another doubt; inactive means no such curve, though single readings can be large or run the other way.

Chains of the proteins cited; added tags and fusions are not shown. Lines headed by an entry give the natural chain unless they say otherwise; changes in a name come on top.
UniProt O94925: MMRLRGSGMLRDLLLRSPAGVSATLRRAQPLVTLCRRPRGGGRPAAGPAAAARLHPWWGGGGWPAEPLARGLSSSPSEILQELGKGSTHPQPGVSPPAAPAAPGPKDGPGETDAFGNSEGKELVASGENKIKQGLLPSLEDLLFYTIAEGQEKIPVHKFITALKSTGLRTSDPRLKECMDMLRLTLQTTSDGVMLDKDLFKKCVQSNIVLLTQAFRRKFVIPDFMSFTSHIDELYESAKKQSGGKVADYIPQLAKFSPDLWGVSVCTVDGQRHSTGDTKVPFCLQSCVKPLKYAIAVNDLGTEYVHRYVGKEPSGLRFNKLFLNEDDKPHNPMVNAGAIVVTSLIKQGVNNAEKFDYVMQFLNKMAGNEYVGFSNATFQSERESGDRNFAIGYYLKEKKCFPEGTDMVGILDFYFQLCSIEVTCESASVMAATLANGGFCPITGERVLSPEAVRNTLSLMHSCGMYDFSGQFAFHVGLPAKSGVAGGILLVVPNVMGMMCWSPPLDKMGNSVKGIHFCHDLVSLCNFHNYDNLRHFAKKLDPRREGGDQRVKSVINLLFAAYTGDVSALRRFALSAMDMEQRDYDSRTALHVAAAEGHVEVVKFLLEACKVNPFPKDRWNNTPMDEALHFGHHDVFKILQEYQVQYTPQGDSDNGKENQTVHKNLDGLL

Biological target: Glutaminase kidney isoform, mitochondrial (Homo sapiens) (UniProt O94925)
Test: qHTS for Inhibitors of Glutaminase (GLS)
Details: GLS enzymatic activity, qHTS titration; at 45.5 µM (top of the series)
Description: Glutaminase (GLS) catalyzes the hydrolysis of glutamine into glutamate and ammonia. It plays a critical role in glutaminolysis, which is an important energy source for proliferating cells. It was shown that c-Myc, an oncogenic transcription factor known to regulate microRNAs and to stimulate cell proliferation, increases glutamine metabolism by stimulating the expression of GLS via direct suppression of miR23a and miR23b.
GLS is also thought to play a pathogenic role on HAD using a human HIV-1 infected macrophage system. […] GLS inhibition limits glutamate release and provides neuroprotection against HIV-1 infected macrophages.
The overall goal of this project is to identify small molecule inhibitors of GLS through quantitative high throughput screening (qHTS) of the MLSMR. A validated potent and selective inhibitor can be used as a tool molecule to further study the pharmacology of its target as well as explore its potential therapeutic application in cancer and inflammatory neurological disorders, such as HIV1-associated dementia (HAD) and multiple sclerosis.
NIH Chemical Genomics Center [NCGC] […]
Three 3 uL of hKGA is dispensed into black well 1536-well plates in 45 mM KH2PO4 (pH 8.2), 0.02% Tween-20. […] Plate is centrifuged for 25 sec before an initial fluorescence read is obtained on the ViewLux, after 30 min of RT incubation, the final read is taken on the ViewLux.
On the % scale 0 is the no-effect control and ±100 the full control effect.

SMILES	activity change, negative = inhibition
COc1ccc(CC(C)NCC(O)c2ccc(O)c(NC=O)c2)cc1 (configuration not stated)	inactive: 38.1% and inactive: 50.2% and inactive: 24.1%
COc1ccc(C[C@H](C)NC[C@@H](O)c2ccc(O)c(NC=O)c2)cc1	inactive: 72.2% and inactive: 63.2%
